According to ChEMBL document CHEMBL4364246, “Synthesis and biological evaluation of 5-aminoethyl benzophenanthridone derivatives as DNA topoisomerase IB inhibitors” (Eur J Med Chem, 2019):

Experiments:
HCT-116 = assay: cells; settings: Homo sapiens, HCT-116, 72 h
MCF7 = assay: cells; settings: Homo sapiens, MCF7, 72 h
DU-145 = assay: cells; settings: Homo sapiens, DU-145, 72 h
A549 = assay: cells; settings: Homo sapiens, A549, 72 h
NCI/ADR-RES = assay: Growth inhibition of human MCF7/ADR cells incubated for 72 hrs by MTT assay; format: functional

| SMILES | GI50 (HCT-116) | GI50 (MCF7) | GI50 (DU-145) | GI50 (A549) | GI50 (NCI/ADR-RES) |
| --- | --- | --- | --- | --- | --- |
| COc1cc2c(=O)n(CCN(C)P3(=O)OCCO3)c3c4cc5c(cc4ccc3c2cc1OC)OCO5 | 5.9 µM | 1800 nM | 3.6 µM | 1900 nM |  |
| CNCCn1c(=O)c2cc(OC)c(OC)cc2c2ccc3cc4c(cc3c21)OCO4 |  |  |  |  | 1370 nM |
